Cell count reduction data for 30 compounds are collected here from PubChem BioAssay AID848 (Columbia University Molecular Screening Center, 2007).

The entries are a selection whose mix differs from that of the whole data set. The source made the active and inactive calls.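 The calls were made as follows: active = cell count reduction exceeding the screen mean by over 5 SD, scaled to untreated wells per plate (cut at about 78% in these data); inactive = the rest.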

The assay in a line: HUVEC nuclei count loss under TNFa – imaging, Hoechst nuclei count, cytotoxicity control for VCAM1 expression modulator project, primary screen (AID 848).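 Also: cells counted after 24 h of TNF alpha exposure following the 1 h pretreatment.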 The note with it: HUVEC TNFalpha-stimulated, at 2 µM, stronger effect = higher value.
`CP(=S)(Nn1cnnc1)Oc1ccccc1` (stereo not given): the cell count reduction is inactive: -7.9%.

Consider `CP(=O)(NC(=O)Nc1ccccc1)Oc1ccccc1` (stereo not given), for which the cell count reduction was inactive: -35.4%.

With `CP(=O)(Nc1ccccn1)Oc1ccc(Cl)cc1` (stereo not given), the cell count reduction is inactive: -6.2%.

As for `COc1ccc(OP(C)(=O)Nc2cccc(F)c2)cc1` (stereo not given), the cell count reduction was inactive: -30.9%.

Regarding `Cc1cc(C)cc(OP(C)(=O)Nc2ccc(C)cc2C)c1` (stereo not given), the cell count reduction was inactive: -31.9%.

Take `Cc1ccc(C)c(NP(C)(=O)Oc2ccccc2)c1` (stereo not given): the cell count reduction is inactive: -7.5%.

Regarding `Cc1cc(C)cc(OP(C)(=O)Nc2ccccn2)c1` (stereo not given), the cell count reduction is inactive: -2.9%.

Turning to `Cc1nc2ccc3ccccc3c2s1.O=[N+]([O-])c1cc([N+](=O)[O-])c(O)c([N+](=O)[O-])c1`, the cell count reduction is inactive: -3.9%.

`COc1ccccc1OP(C)(=O)Nc1c(C)cccc1C` (stereo not given): the cell count reduction was inactive: -11.6%.

In the case of `COc1ccc(OP(C)(=O)Nc2cccc(Br)c2)cc1` (stereo not given), the cell count reduction is inactive: -15.7%.

For the compound `CN(C)CCOC(=O)C(O)(c1ccccc1)C1CCCCC1` (stereo not given), the cell count reduction was inactive: 8.5%.

Regarding `CCOP(C)(=S)SCC(=O)NC(C)(CC)C(=O)O` (stereo not given), the cell count reduction was inactive: -21.5%.

As for `CP(=O)(Nc1ccc2c(c1)OCCO2)Oc1ccccc1` (stereo not given), the cell count reduction is inactive: -9.2%.

`CP(=O)(Nc1ccccc1F)Oc1ccccc1` (stereo not given): the cell count reduction was inactive: -25.5%.

Consider `CCN(CC)CCCOC(=O)C(O)(c1ccccc1)C1CCCCC1` (stereo not given), for which the cell count reduction is inactive: 0%.

Turning to `CP(=O)(Nc1ccccc1)Oc1ccc(F)cc1` (stereo not given), the cell count reduction is inactive: -11.3%.

Consider `COc1ccccc1OP(C)(=O)Nc1ccc(C)c(C)c1` (stereo not given), for which the cell count reduction is inactive: -27.3%.

`Cc1nc2ccc3ccccc3c2o1.O=[N+]([O-])c1cc([N+](=O)[O-])c(O)c([N+](=O)[O-])c1`: the cell count reduction is inactive: -14.3%.

Take `COc1ccc(OP(C)(=O)Nc2ccccn2)cc1` (stereo not given): the cell count reduction was inactive: -7.9%.

On to `CN(C)CCOC(=O)C(O)(c1ccccc1)C1CCCC1` (stereo not given), for which the cell count reduction is inactive: -23.6%.

Take `Cc1c(NP(C)(=O)Oc2ccc(C(C)C)cc2)c(=O)n(-c2ccccc2)n1C` (stereo not given): the cell count reduction was inactive: 0%.

As for `CP(=O)(Nc1ccccn1)Oc1ccccc1` (stereo not given), the cell count reduction was inactive: -36%.

For the compound `COc1ccccc1OP(C)(=O)Nc1ccc(C)cc1C` (stereo not given), the cell count reduction is inactive: -38.2%.

Consider `CCc1ccc(OP(C)(=O)O)cc1`, for which the cell count reduction was inactive: -38.9%.

For the compound `CCN(CC)CC(O)COC(=O)C(O)(c1ccccc1)C1CCCCC1` (stereo not given), the cell count reduction was inactive: -33.6%.

With `COc1ccccc1OP(C)(=O)Nc1c(C)n(C)n(-c2ccccc2)c1=O` (stereo not given), the cell count reduction was inactive: -40.5%.

Turning to `CP(=O)(Oc1ccccc1)N1CCOC1=O` (stereo not given), the cell count reduction was inactive: 3.4%.

In the case of `CC(C)(C)c1ccc(OP(C)(=O)O)cc1`, the cell count reduction is inactive: -31%.

For `CP(=O)(Nc1ccc(Cl)cc1)Oc1ccc(F)cc1` (stereo not given), the cell count reduction was inactive: -17.2%.

In the case of `CP(=O)(OC12CC3CC(CC(C3)C1)C2)OC12CC3CC(CC(C3)C1)C2`, the cell count reduction was inactive: 1.4%.
